Test results as given in patent US9694016B2 (Novartis AG, priority 2013, dated 2017).

Amino acid sequences for entries named in this document (tags omitted).
UniProt P04049, whole entry Y340E/Y341E: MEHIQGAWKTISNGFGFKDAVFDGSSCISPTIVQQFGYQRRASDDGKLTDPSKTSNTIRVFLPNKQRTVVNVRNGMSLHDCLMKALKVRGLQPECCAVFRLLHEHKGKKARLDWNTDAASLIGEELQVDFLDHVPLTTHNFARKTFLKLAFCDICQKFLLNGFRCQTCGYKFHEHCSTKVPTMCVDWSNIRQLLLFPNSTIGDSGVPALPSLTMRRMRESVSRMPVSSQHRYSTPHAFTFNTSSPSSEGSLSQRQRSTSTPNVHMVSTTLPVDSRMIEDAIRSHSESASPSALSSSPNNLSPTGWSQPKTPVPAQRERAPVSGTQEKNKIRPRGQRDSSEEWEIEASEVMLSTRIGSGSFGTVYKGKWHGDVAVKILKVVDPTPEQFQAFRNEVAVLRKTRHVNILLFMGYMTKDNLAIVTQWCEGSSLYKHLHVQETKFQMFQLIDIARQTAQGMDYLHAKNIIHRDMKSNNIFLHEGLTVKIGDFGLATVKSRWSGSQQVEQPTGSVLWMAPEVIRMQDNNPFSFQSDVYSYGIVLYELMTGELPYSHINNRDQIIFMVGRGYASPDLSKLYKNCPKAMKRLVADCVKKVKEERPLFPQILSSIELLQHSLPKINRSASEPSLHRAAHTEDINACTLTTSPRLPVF

These compounds were tested against C-Raf FL (full-length C-Raf protein, Y340E and Y341E activating mutations) (Homo sapiens (Human), UniProt P04049, Y340E/Y341E). Conditions: Table 2; AlphaScreen, 1 hour reaction; read-out: c-Raf FL IC-50.
Format: biochemical

IC50 [nM]	Compound
0.3	CCOc1ncc(-c2cc(NC(=O)c3cccc(S(C)(=O)=O)c3)ccc2C)cc1N1CCOCC1 [Example 229, N-(3-(6-ethoxy-5-morpholinopyridin-3-yl)-4-methylphenyl)-3-(methylsulfonyl)benzamide]
0.4	CCOc1ncc(-c2cc(NC(=O)c3cccc(-c4nnco4)c3)ccc2C)cc1N1CCOCC1 [Example 230, N-(3-(6-ethoxy-5-morpholinopyridin-3-yl)-4-methylphenyl)-3-(1,3,4-oxadiazol-2-yl)benzamide]
0.1	CCOc1ncc(-c2cc(NC(=O)c3cccc(C(F)F)c3)ccc2C)cc1N1CCOCC1 [Example 231, 3-(difluoromethyl)-N-(3-(6-ethoxy-5-morpholinopyridin-3-yl)-4-methylphenyl)benzamide]
0.3	CCOc1ncc(-c2cc(NC(=O)c3ccnc(S(C)(=O)=O)c3)ccc2C)cc1N1CCOCC1 [Example 232, N-(3-(6-ethoxy-5-morpholinopyridin-3-yl)-4-methylphenyl)-2-(methylsulfonyl)isonicotinamide]
0.2	CCOc1ncc(-c2cc(NC(=O)c3ccnc(C(C)(F)F)c3)ccc2C)cc1N1CCOCC1 [Example 233, 2-(1,1-difluoroethyl)-N-(3-(6-ethoxy-5-morpholinopyridin-3-yl)-4-methylphenyl)isonicotinamide]
0.5	CCOc1ncc(-c2cc(NC(=O)c3cc(C(F)(F)F)c(=O)n(CC)c3)ccc2C)cc1N1CCOCC1 [Example 234, N-(3-(6-ethoxy-5-morpholinopyridin-3-yl)-4-methylphenyl)-1-ethyl-6-oxo-5-(trifluoromethyl)-1,6-dihydropyridine-3-carboxamide]
0.2	CCOc1ncc(-c2cc(NC(=O)c3ccnc(C(F)F)c3)ccc2C)cc1N1CCOCC1 [Example 237, 2-(difluoromethyl)-N-(3-(6-ethoxy-5-morpholinopyridin-3-yl)-4-methylphenyl)isonicotinamide]
2.1	CCOc1ncc(-c2cc(NC(=O)c3ccnc(C(C)(C)C#N)c3)cnc2C)cc1N1CCOCC1 [Example 239, 2-(2-cyanopropan-2-yl)-N-(6′-ethoxy-2-methyl-5′-morpholino-[3,3′-bipyridin]-5-yl)isonicotinamide]
5.1	CCOc1ncc(-c2cc(NC(=O)c3ccnc(C(C)(C)O)c3)cnc2C)cc1N1CCOCC1 [Example 240, N-(6′-ethoxy-2-methyl-5′-morpholino-[3,3′-bipyridin]-5-yl)-2-(2-hydroxypropan-2-yl)isonicotinamide]
2	CCOc1ncc(-c2cc(NC(=O)c3cc(C(F)(F)F)c(=O)n(CC)c3)cnc2C)cc1N1CCOCC1 [Example 241, N-(6′-ethoxy-2-methyl-5′-morpholino-[3,3′-bipyridin]-5-yl)-1-ethyl-6-oxo-5-(trifluoromethyl)-1,6-dihydropyridine-3-carboxamide]
1.8	CCOc1ncc(-c2cc(NC(=O)c3cccc(S(C)(=O)=O)c3)cnc2C)cc1N1CCOCC1 [Example 242, N-(6′-ethoxy-2-methyl-5′-morpholino-[3,3′-bipyridin]-5-yl)-3-(methylsulfonyl)benzamide]
2.7	CCOc1ncc(-c2cc(NC(=O)c3ccnc(S(C)(=O)=O)c3)cnc2C)cc1N1CCOCC1 [Example 243, N-(6′-ethoxy-2-methyl-5′-morpholino-[3,3′-bipyridin]-5-yl)-2-(methylsulfonyl)isonicotinamide]
3.6	CCOc1ncc(-c2cc(NC(=O)c3cccc(-c4nnco4)c3)cnc2C)cc1N1CCOCC1 [Example 244, N-(6′-ethoxy-2-methyl-5′-morpholino-[3,3′-bipyridin]-5-yl)-3-(1,3,4-oxadiazol-2-yl)benzamide]
0.6	CCOc1ncc(-c2cc(NC(=O)c3cc(C4CC4)on3)cnc2C)cc1N1CCOCC1 [Example 245, 5-cyclopropyl-N-(6′-ethoxy-2-methyl-5′-morpholino-[3,3′-bipyridin]-5-yl)isoxazole-3-carboxamide]
0.6	CCOc1ncc(-c2cc(NC(=O)c3ccnc(C(F)(F)F)c3)cnc2C)cc1N1CCOCC1 [Example 246, N-(6′-ethoxy-2-methyl-5′-morpholino-[3,3′-bipyridin]-5-yl)-2-(trifluoromethyl)isonicotinamide]
0.6	CCOc1ncc(-c2cc(NC(=O)c3ccnc(C(F)F)c3)cnc2C)cc1N1CCOCC1 [Example 247, 2-(difluoromethyl)-N-(6′-ethoxy-2-methyl-5′-morpholino-[3,3′-bipyridin]-5-yl)isonicotinamide]
3.6	Cc1ncc(NC(=O)c2cc(CN(C)C)cc(C(F)(F)F)c2)cc1-c1cnc(C#N)c(N2CCOCC2)c1 [Example 249, N-(6′-cyano-2-methyl-5′-morpholino-[3,3′-bipyridin]-5-yl)-3-((dimethylamino)methyl)-5-(trifluoromethyl)benzamide]
0.5	Cc1ncc(NC(=O)c2ccnc(C(C)C)c2)cc1-c1cnc(C#N)c(N2CCOCC2)c1 [Example 251, N-(6′-cyano-2-methyl-5′-morpholino-[3,3′-bipyridin]-5-yl)-2-isopropylisonicotinamide]
0.8	CCOc1ncc(-c2cc(NC(=O)c3ccnc(C(C)C)c3)cnc2C)cc1N1CCOCC1 [Example 252, N-(6′-ethoxy-2-methyl-5′-morpholino-[3,3′-bipyridin]-5-yl)-2-isopropylisonicotinamide]
0.7	CCOc1ncc(-c2cc(NC(=O)c3ccnc(C(C)(C)F)c3)cnc2C)cc1N1CCOCC1 [Example 253, N-(6′-ethoxy-2-methyl-5′-morpholino-[3,3′-bipyridin]-5-yl)-2-(2-fluoropropan-2-yl)isonicotinamide]
0.5	CCOc1ncc(-c2cc(NC(=O)c3ccnc(C4CC4)c3)cnc2C)cc1N1CCOCC1 [Example 254, 2-cyclopropyl-N-(6′-ethoxy-2-methyl-5′-morpholino-[3,3′-bipyridin]-5-yl)isonicotinamide]
2	CCOc1ncc(-c2cc(NC(=O)c3ccnc(C4COC4)c3)cnc2C)cc1N1CCOCC1 [Example 255, N-(6′-ethoxy-2-methyl-5′-morpholino-[3,3′-bipyridin]-5-yl)-2-(oxetan-3-yl)isonicotinamide]
3.5	CCOc1ncc(-c2cc(NC(=O)c3cc(N4CCN(CC)CC4)cc(C(F)(F)F)c3)cnc2C)cc1N1CCOCC1 [Example 257, N-(6′-ethoxy-2-methyl-5′-morpholino-[3,3′-bipyridin]-5-yl)-3-(4-ethylpiperazin-1-yl)-5-(trifluoromethyl)benzamide]
2.2	CCOc1ncc(-c2cc(NC(=O)c3cc(CN(C)C)cc(C(F)(F)F)c3)cnc2C)cc1N1CCOCC1 [Example 258, 3-((dimethylamino)methyl)-N-(6′-ethoxy-2-methyl-5′-morpholino-[3,3′-bipyridin]-5-yl)-5-(trifluoromethyl)benzamide]
1.5	CCOc1ncc(-c2cc(NC(=O)c3cnnc(C(F)(F)F)c3)cnc2C)cc1N1CCOCC1 [Example 259, N-(6′-ethoxy-2-methyl-5′-morpholino-[3,3′-bipyridin]-5-yl)-6-(trifluoromethyl)pyridazine-4-carboxamide]

Compound	IC50 [nM]
CCOc1ncc(-c2cc(C(=O)Nc3cccc(C(C)(C)O)c3)ccc2C)cc1N1CCOCC1 [Example 236, 3-(6-ethoxy-5-morpholinopyridin-3-yl)-N-(3-(2-hydroxypropan-2-yl)phenyl)-4-methylbenzamide]	0.6
